Experimental data: ChEMBL document CHEMBL4330088, “Targeting the immunity protein kinases for immuno-oncology” (Eur J Med Chem, 2019)

Chains of the proteins cited; added tags and fusions are not shown.
UniProt P42336, whole entry: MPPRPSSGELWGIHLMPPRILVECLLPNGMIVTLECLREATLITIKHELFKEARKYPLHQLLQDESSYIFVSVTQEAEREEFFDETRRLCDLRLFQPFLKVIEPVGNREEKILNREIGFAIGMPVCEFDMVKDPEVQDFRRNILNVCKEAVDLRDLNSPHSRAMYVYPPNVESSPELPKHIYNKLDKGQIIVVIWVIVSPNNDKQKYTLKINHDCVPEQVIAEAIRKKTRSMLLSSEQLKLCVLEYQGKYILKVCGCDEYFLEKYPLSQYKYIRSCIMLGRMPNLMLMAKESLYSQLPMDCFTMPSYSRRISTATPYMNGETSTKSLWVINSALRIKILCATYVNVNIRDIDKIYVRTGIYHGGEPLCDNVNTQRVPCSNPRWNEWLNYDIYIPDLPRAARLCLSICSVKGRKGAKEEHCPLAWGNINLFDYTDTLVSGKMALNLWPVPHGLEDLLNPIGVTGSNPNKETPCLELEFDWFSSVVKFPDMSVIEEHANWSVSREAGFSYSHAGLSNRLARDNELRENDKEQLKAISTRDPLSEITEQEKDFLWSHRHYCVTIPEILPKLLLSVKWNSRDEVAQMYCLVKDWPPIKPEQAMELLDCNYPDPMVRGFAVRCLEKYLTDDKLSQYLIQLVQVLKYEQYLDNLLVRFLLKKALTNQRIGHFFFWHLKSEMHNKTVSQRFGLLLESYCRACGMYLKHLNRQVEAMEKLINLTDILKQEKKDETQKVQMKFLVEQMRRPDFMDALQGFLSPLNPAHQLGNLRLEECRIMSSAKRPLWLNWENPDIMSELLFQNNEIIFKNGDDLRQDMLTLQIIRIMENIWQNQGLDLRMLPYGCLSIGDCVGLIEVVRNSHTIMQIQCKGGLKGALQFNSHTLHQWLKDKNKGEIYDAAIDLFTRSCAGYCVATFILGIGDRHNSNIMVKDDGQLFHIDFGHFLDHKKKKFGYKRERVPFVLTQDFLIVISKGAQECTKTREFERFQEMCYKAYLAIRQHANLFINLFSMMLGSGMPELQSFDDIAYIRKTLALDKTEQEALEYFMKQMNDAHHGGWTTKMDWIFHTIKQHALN

Assays:
[1] = target: PI3-kinase p110-alpha/p85-alpha (Homo sapiens, UniProt P42336); assay: Inhibition of human N-terminal His-tagged PI3Kalpha/p85alpha expressed in Spodoptera frugiperda using phosphatidylinositol as substrate
[2] = target: T1, Phosphatidylinositol 4,5-bisphosphate 3-kinase catalytic subunit delta isoform (Homo sapiens, UniProt O00329); assay: Inhibition of PI3Kdelta (unknown origin)
T1 sequence (O00329 whole entry): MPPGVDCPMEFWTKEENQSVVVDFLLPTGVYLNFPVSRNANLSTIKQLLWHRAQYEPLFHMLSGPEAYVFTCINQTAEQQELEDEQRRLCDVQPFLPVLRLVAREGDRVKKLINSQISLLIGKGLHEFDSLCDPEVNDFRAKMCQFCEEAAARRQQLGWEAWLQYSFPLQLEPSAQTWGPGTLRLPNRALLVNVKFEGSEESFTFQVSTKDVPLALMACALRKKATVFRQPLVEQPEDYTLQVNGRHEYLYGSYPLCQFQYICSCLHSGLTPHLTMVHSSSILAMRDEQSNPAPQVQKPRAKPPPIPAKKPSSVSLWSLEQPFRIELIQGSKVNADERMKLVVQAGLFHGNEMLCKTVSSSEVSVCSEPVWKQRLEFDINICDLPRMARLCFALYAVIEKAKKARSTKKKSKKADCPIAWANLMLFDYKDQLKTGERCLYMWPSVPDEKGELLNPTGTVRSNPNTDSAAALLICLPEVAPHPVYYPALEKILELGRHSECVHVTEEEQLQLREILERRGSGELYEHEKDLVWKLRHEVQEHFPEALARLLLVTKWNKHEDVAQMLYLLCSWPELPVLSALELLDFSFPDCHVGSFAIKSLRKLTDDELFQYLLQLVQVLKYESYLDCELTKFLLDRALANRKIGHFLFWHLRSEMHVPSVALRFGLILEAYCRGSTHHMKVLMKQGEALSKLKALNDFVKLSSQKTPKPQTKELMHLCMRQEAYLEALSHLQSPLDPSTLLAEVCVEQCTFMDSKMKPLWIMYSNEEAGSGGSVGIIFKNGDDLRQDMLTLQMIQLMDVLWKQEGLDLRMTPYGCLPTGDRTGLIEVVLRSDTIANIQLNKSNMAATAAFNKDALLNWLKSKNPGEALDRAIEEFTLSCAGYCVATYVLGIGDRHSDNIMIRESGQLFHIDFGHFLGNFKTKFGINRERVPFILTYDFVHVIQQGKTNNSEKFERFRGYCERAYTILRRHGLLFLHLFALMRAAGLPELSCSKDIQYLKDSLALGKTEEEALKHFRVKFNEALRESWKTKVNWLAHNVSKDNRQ

IC50 [1]: > 10000 nM
IC50 [2]: 31 nM
SMILES: Cc1csc2nc([C@H](C)Nc3ncnc4[nH]cnc34)c(-c3cccc(F)c3)c(=O)n12 [DEZAPELISIB]
